According to patent US10251952B2, “Humanized anti-tau(pS422) antibody brain shuttles and use thereof” (Hoffmann-La Roche Inc., priority 2014, dated 2019):

Tests used:
[1] = system: hCMEC/D3 cells; assay: FACS: simultaneous cell surface and payload binding; assay type: cell-based
Excerpt: To enable blood brain barrier-shuttle functionality of the bispecific antibodies, they must simultaneously bind to the blood brain barrier receptor on endothelial cells of the blood brain barrier, and to the haptenylated payloads to be shuttled. To evaluate this functionality of the hapten-binding bispecific antibodies as reported herein, simultaneous cell surface and payload binding was addressed by FACS analyses. For these analyses, cell binding of the blood brain barrier-shuttle module (=bispecific antibody) was detected by phytoerythrin-labeled IgG recognizing secondary antibodies. Simultaneous payload binding was detected by application of a haptenylated fluorescent payload (digoxigenylated Cy5; DIG-Cy5). The results of the FACS analysis, using hCMEC/D3 cells as TfR expressing BBB-derived cell line and Dig-Cy5 as fluorescent payload are shown in FIG. 9: both transferrin receptor binding bispecific antibodies bind to hCMEC/D3 as shown by the anti-IgG-PE associated signals. Similarly, both bispecific antibodies also and simultaneously bind Dig-Cy5 as shown by cell-associated Cy5 attributable signals.

[2] = system: hCMEC/D3 cells; assay: transwell cell binding and release of shuttle modules, IgG ELISA; assay type: cell-based
Excerpt: We used brain endothelial cells (hCMEC/D3) to investigate cell binding and transcytosis of the shuttle modules as reported herein. Previous studies (Crepin et al., 2010; Lesley et al., 1989, WO 2012/075037, WO 2014/033074) reported that valency and affinity of TfR binding antibodies influence efficacy of binding to, transcytosis though, and release from endothelial cells of the blood brain barrier. To investigate cell binding and transcytosis in hCMEC/D3, hCMEC/D3 cells cultured on filter inserts were incubated apically with the bispecific antibody or parent antibody (without hapten-binding scFvs as controls) for 1 hour at 37° C. Cell monolayers were washed at room temperature in serum-free medium apically (400 μl) and basolaterally (1600 μl) three times for 3-5 minutes each. All wash volumes were collected to monitor efficiency of removal of the unbound ligand or antibody. Pre-warmed medium was added to the apical chamber and the filters transferred to a fresh 12 well plate (blocked overnight with PBS containing 1% BSA) containing 1600 μl pre-warmed medium. At this point, cells were lysed in 500 μl RIPA buffer (Sigma, Munich, Germany, #R0278) in order to determine specific uptakes. […] The content of antibody in the samples was quantified using a highly sensitive IgG ELISA.

B1: CD33-Dig: control bispecific antibody recognizing an antigen not present on hCMEC/D3 (CD33) and digoxigenin (antibody)
heavy: EVQLVQSGAEVKKPGSSVKVSCKASGYTITDSNIHWVRQAPGQSLEWIGYIYPYNGGTDYNQKFKNRATLTVDNPTNTAYMELSSLRSEDTAFYYCVNGNPWLAYWGQGTLVTVSSASTKGPSVFPLAPSSKSTSGGTAALGCLVKDYFPEPVTVSWNSGALTSGVHTFPAVLQSSGLYSLSSVVTVPSSSLGTQTYICNVNHKPSNTKVDKKV[letters of human IgG1 Fc omitted]GGGGSGGGGSQVQLVESGGGLVKPGGSLRLSCAASGFTFSDYAMSWIRQAPGKCLEWVSSINIGATYIYYADSVKGRFTISRDNAKNSLYLQMNSLRAEDTAVYYCARPGSPYEYDKAYYSMAYWGQGTTVTVSSGGGGSGGGGSGGGGSDIQMTQSPSSLSASVGDRVTITCRASQDIKNYLNWYQQKPGKAPKLLIYYSSTLLSGVPSRFSGSGSGTDFTLTISSLQPEDFATYYCQQSITLPPTFGCGTKVEIK
light: DIQLTQSPSTLSASVGDRVTITCRASESLDNYGIRFLTWFQQKPGKAPKLLMYAASNQGSGVPSRFSGSGSGTEFTLTISSLQPDDFATYYCQQTKEVPWSFGQGGTKVEVKEIKRTVAAPSVFIFPPSDEQLKSGTASVVCLLNNFYPREAKVQWKVDNALQSGNSQESVTEQDSKDSTYSLSSTLTLSKADYEKHKVYACEVTHQGLSSPVTKSFNRGEC
cell binding (anti-IgG-PE associated signals) [1]: not generate relevant signals | simultaneous payload binding (cell-associated Dig-Cy5 signals) [1]: not generate relevant signals | binding to the cells ([2]; 1 hour at 37 °C apically): do not bind to these cells | release to apical or basolateral compartments ([2]; over time after washing): not released over time into apical or basolateral compartments
